The values that follow come from ChEMBL document CHEMBL3885861, “Open TG-GATES”.

The species entered for this data set is Rattus norvegicus. Kind of data set: Open TG-GATES - Regimen: Single. The class given is toxicity, organism-based, Sprague-Dawley. More on the design: regimen Single, gender Male, age 6 weeks. To be noted: in vivo.
Where [1] appears, read: ip, 0 mg/kg, 3 h, tissue Blood, route intraperitoneal injection, dose 0 ug/Kg, dose level Control.

In the case of `CN(C)CCCN1c2ccccc2CCc2ccc(Cl)cc21` [CLOMIPRAMINE], the RBC (po, 30 mg/kg, 3 h, tissue Blood, route gavage, dose level Middle) was determined as 677 x10_4/ul. Further, the Cl (po, 100 mg/kg, 6 h, tissue Plasma, route gavage, dose level High) is listed as 106.4 meq/L.

Consider `CC/C(=C(\c1ccccc1)c1ccc(OCCN(C)C)cc1)c1ccccc1` [TAMOXIFEN], for which the Ret is, setting by setting: (po, 0 mg/kg, 3 h, tissue Blood, route gavage, dose level Control) 10.1%; (po, 0 mg/kg, 24 h, tissue Blood, route gavage, dose level Control) 10.3%; (po, 6 mg/kg, 3 h, tissue Blood, route gavage, dose level Low) 10.1%; (po, 6 mg/kg, 9 h, tissue Blood, route gavage, dose level Low) 10.1%; (po, 60 mg/kg, 6 h, tissue Blood, route gavage, dose level High) 10.1%. In addition, the ALP (po, 0 mg/kg, 9 h, tissue Plasma, route gavage, dose level Control) was 1541 IU/L. Further, the PL by setting is: (po, 0 mg/kg, 24 h, tissue Plasma, route gavage, dose level Control) 156.4 mg/dL; (po, 60 mg/kg, 24 h, tissue Plasma, route gavage, dose level High) 103 mg/dL. In addition, the Ca (po, 20 mg/kg, 9 h, tissue Plasma, route gavage, dose level Middle) is 10.3 mg/dL.

LPS came in with a Fbg under setting [1] of 245 mg/dL. Moreover, the Hb under setting [1] is reported as 13.3 g/dL; the Hb (ip, 0.01 mg/kg, 6 h, tissue Blood, route intraperitoneal injection, dose 10 ug/Kg, dose level Low) was 13.3 g/dL; the Hb (ip, 3 mg/kg, 3 h, tissue Blood, route intraperitoneal injection, dose 3000 ug/Kg, dose level High) was 13.2 g/dL; the Hb (ip, 3 mg/kg, 6 h, tissue Blood, route intraperitoneal injection, dose 3000 ug/Kg, dose level High) worked out at 13.3 g/dL. For the setting “ip, 0.01 mg/kg, 3 h, tissue Blood, route intraperitoneal injection, dose 10 ug/Kg, dose level Low”, the Ht amounted to 39.2%. Further, the Ca stood at 10.2 mg/dL (ip, 0.01 mg/kg, 3 h, tissue Plasma, route intraperitoneal injection, dose 10 ug/Kg, dose level Low); 10.2 mg/dL (ip, 0.01 mg/kg, 9 h, tissue Plasma, route intraperitoneal injection, dose 10 ug/Kg, dose level Low); 10.2 mg/dL (ip, 3 mg/kg, 24 h, tissue Plasma, route intraperitoneal injection, dose 3000 ug/Kg, dose level High). This compound returned an MCV (ip, 0.3 mg/kg, 3 h, tissue Blood, route intraperitoneal injection, dose 300 ug/Kg, dose level Middle) of 66.2 fL. Under “ip, 3 mg/kg, 9 h, tissue Plasma, route intraperitoneal injection, dose 3000 ug/Kg, dose level High”, this compound displayed an IP of 10.7 mg/dL.
